In the assay the target is Collagenase ColQ1 (Bacillus cereus) (UniProt B9J3S4). Briefly: Inhibition of full length Bacillus cereus ColQ1 assessed as reduction in Col 1 cleavage at 12.5 uM incubated for 3 hrs by SDS-PAGE analysis.

Molecules are shown by their SMILES. Calls of active or inactive are those of the source. The calls are words filed in the database; no cut-off is given here.

Regarding `O=P(O)(O)c1nc2ccc(Br)cc2nc1P(=O)(O)O`, the inhibition result was “Active”.

(Values after ChEMBL document CHEMBL5104188, “Discovery and Characterization of Synthesized and FDA-Approved Inhibitors of Clostridial and Bacillary Collagenases” (J Med Chem, 2022).)
